Yeast mating assay 1: variants of the scFv Ab-14

Values reported by Engelhart et al. 2022, doi:10.1038/s41597-022-01779-4 (FLAb copy).

Antigen: PDVDLGDISGINAS, a 14-residue peptide of the SARS-CoV-2 spike HR2 region.

Parent scFv Ab-14: VH joined to VL by a (GGGGS)3 linker. Changes lie in the heavy chain CDRs alone.
VH: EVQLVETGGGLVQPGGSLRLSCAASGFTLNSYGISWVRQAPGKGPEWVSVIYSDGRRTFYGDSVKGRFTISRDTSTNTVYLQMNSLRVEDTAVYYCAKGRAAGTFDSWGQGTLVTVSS
VL: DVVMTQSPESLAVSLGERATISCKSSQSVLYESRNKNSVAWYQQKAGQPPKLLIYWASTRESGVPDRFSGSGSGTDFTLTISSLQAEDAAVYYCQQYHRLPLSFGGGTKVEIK

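Phage display of a naive human antibody library on the peptide gave the parent. Variants in AAYL49 differ from the parent at up to three CDR positions; double and triple changes were sampled at random. AlphaSeq pools MATa yeast showing the antibodies with MATalpha yeast showing the peptide. Pairs that bind mate more often; barcode pairs of the diploids are counted by sequencing. A regression on co-assayed BCL2-family reference pairs converts the normalised counts of each replicate to an apparent Kd. Each pool was mated in three replicate cultures.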

Positions count from residue 1 of the parent VH; F27T puts T in place of F.
Affinities are written as log10 Kd with Kd in nM; a lower number is a better binder.
Where no diploid with the target was found in that replicate, the entry reads "nd": below detection, most likely a poor binder, though not proof of it.

| # | changes | log10 Kd (nM) by replicate | control signals |
|---|---|---|---|
| 1 | F27T/L29M/D54K | nd / nd / nd | 0 of 9 |
| 2 | R57W | nd / nd / nd | 1 of 9 (3.17) |
| 3 | V50L/Y52K/G99T | nd / nd / nd | 0 of 9 |
| 4 | I51C/F59L/A101S | 5.74 / nd / nd | 3 of 9 (4.04) |
| 5 | T28K/K65M/G103A | 0.89 / 1.20 / 1.09 | 0 of 9 |
| 6 | G33E/I34S/R56L | nd / nd / nd | 1 of 9 (4.79) |
| 7 | F27M/V50M/Y52N | 3.81 / nd / nd | 2 of 9 (3.71) |
| 8 | S35V/G99K/D106K | nd / nd / nd | 1 of 9 (3.64) |
| 9 | N30W/G61E/V64D | nd / nd / 4.77 | 3 of 9 (4.34) |
| 10 | S53W/A102D/F105H | nd / nd / nd | 1 of 9 (2.42) |
| 11 | I34N/R56M/D62S | nd / nd / nd | 1 of 9 (3.17) |
| 12 | V50R/T58M/Y60M | 5.44 / nd / nd | 1 of 9 (4.09) |
| 13 | S35G/K65P/R100I | nd / nd / nd | 2 of 9 (3.58) |
| 14 | V50S/D54Q/G103E | 5.70 / nd / nd | 3 of 9 (3.97) |
| 15 | Y32A/S53G/G103K | nd / nd / nd | 0 of 9 |
| 16 | L29A/V50T/R100F | nd / nd / nd | 2 of 9 (3.36) |
| 17 | G33H/D62L/T104F | 4.53 / 4.01 / nd | 5 of 9 (4.74) |
| 18 | T28A/V64Q/R100T | 1.63 / 1.53 / 1.94 | 1 of 9 (4.58) |
| 19 | L29A/S53M/T104A | nd / nd / nd | 0 of 9 |
| 20 | T28W/R57G/T58G | nd / nd / nd | 0 of 9 |
| 21 | L29Y/S35D | nd / nd / nd | 0 of 9 |
| 22 | A101F/G103K/T104C | nd / nd / nd | 1 of 9 (3.49) |
| 23 | V64D | nd / nd / nd | 0 of 9 |
| 24 | G26M/I34C/V50N | nd / nd / nd | 1 of 9 (4.12) |
| 25 | T28R/K65I/R100N | 1.14 / 1.29 / 1.27 | 0 of 9 |
| 26 | G26V/Y32S/G61W | nd / nd / nd | 0 of 9 |
| 27 | Y32E/A102I/G103Q | nd / nd / 5.20 | 1 of 9 (4.08) |
| 28 | F27L/V64M/G99N | nd / nd / nd | 2 of 9 (4.75) |
| 29 | Y60S/F105Q/S107H | nd / nd / nd | 3 of 9 (3.02) |
| 30 | T28V/S31P/Y32P | nd / nd / nd | 0 of 9 |
| 31 | I34N/K65R/T104M | nd / nd / nd | 1 of 9 (3.98) |
| 32 | V50R/I51V/D62M | nd / nd / nd | 1 of 9 (3.18) |
| 33 | I34H/S35F/D54G | nd / nd / nd | 0 of 9 |
| 34 | G33M/S35N/A102V | nd / nd / nd | 0 of 9 |
| 35 | G26C/S31N/S107A | 1.65 / 1.09 / 1.52 | 0 of 9 |
| 36 | S31P/K65G/T104Y | nd / nd / nd | 1 of 9 (3.31) |
| 37 | G26A/F27C/R56N | 2.53 / 2.24 / 2.17 | 0 of 9 |
| 38 | G55S/R57W/S107C | nd / 3.23 / 4.90 | 0 of 9 |
| 39 | S35Y/G99I/A101C | nd / nd / nd | 1 of 9 (3.34) |
| 40 | Y52P/F59L/A102K | nd / nd / nd | 0 of 9 |
| 41 | I51F/D54Y/R56S | nd / nd / 4.41 | 0 of 9 |
| 42 | N30T/S53T/A101Q | nd / 1.78 / 1.26 | 0 of 9 |
| 43 | T28L/G55V/F59Y | nd / nd / nd | 1 of 9 (3.37) |
| 44 | G26C/R56Q/R57M | nd / nd / nd | 0 of 9 |
| 45 | T58A/G61W/G99P | nd / 2.63 / nd | 1 of 9 (2.77) |
| 46 | L29C/G103L/T104G | nd / nd / nd | 0 of 9 |
| 47 | I51H/R57I/S63D | nd / 3.58 / nd | 1 of 9 (3.27) |
| 48 | Y32I/I51R/G103L | nd / nd / nd | 0 of 9 |
| 49 | I34F/I51S/R57F | nd / nd / nd | 0 of 9 |
| 50 | S35C/I51L/S107P | 5.80 / 4.16 / 4.10 | 9 of 9 (5.18) |
| 51 | R56N/R57K/D62A | nd / nd / nd | 0 of 9 |
| 52 | G61R/A102T/D106C | nd / nd / nd | 0 of 9 |

A selection of 6 entries from above:

changes	log10 Kd (nM) by replicate	control signals
R57W	nd / nd / nd	1 of 9 (3.17)
T28R/K65I/R100N	1.14 / 1.29 / 1.27	0 of 9
Y32I/I51R/G103L	nd / nd / nd	0 of 9
S35C/I51L/S107P	5.80 / 4.16 / 4.10	9 of 9 (5.18)
T28V/S31P/Y32P	nd / nd / nd	0 of 9
G33H/D62L/T104F	4.53 / 4.01 / nd	5 of 9 (4.74)

Parent in this assay: reference entry 0.65, copy in this library 4.11 (one replicate of three).
Nonspecific signal, from three strains lacking the peptide, appeared in 15% of pairings of library AAYL49, centred on 4.06 (5% of these signals below 2.83); values are not corrected for it. The control count says in how many pairings with the empty strains this scFv gave a signal, with their mean in brackets.